Screens: PubChem BioAssay, Broad Institute
Sampled rows, rich in hits. Any-hit rate of the full collection: about 1.3%.
SR-BI DiI inh: inhibitors of SR-BI mediated HDL lipid uptake, primary screen, ldlA[mSR-BI] cells, fluorescence, single point; ldlA[mSR-BI] CHO cells, DiI-HDL uptake fluorescence, 3 h; 320,000 tested, 0.96% active; Scavenger receptor class B member 1 (Mus musculus), Q61009; inhibition, % at 12.5 µM;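 active = mean replicate inhibition of at least 70% and a set share of replicates each scoring 70 or more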
SR-BI uptake up: activators of SR-BI mediated DiI-HDL uptake, primary screen, ldlA[mSR-BI] CHO cells, DiI fluorescence; 3 h; 100 = double the neutral-control signal; activation, % at 12.5 µM; 320,000 tested, 0.096% active;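 active = mean replicate activation of at least 60% and every replicate at or above 60%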
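system = CHO ldlA[mSR-BI] cells, LDL receptor-null, SR-BI overexpressing | medium = Ham's F12 with 0.5% BSA, HEPES 25 mM, pH 7.4 | probe or stimulus = DiI-HDL 10 µg/mL | compound dosing = single-point compound dose | incubation = compound exposure 3 h, 37 °C | technique = DiI fluorescence, bottom read | read-out = cell-associated DiI fluorescence as measure of HDL uptake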
GSIS activator: GLuc luminescence reporter in INS-1E cells, primary screen for activators of glucose-dependent secretion of insulin; INS-1E GLuc reporter insulin secretion, 2-3 h; activation, % at 16.6 µM; 370,000 tested, 0.61% active; AID 743287, 2014;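 active = lowest replicate activation of at least 40%, so every replicate reaches that level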
UUG fidelity: yeast start codon fidelity modulation | S. cerevisiae UUG-firefly luciferase reporter, luminescence/redox ratio | activity score, % at 18.7 µM | 350,000 tested, 0.13% active;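 active = replicate mean at a twofold rise or more, about +100% in these data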;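 also: firefly luciferase made from a UUG start codon reports start codon fidelity; reporter light over untreated wells divided by growth signal over untreated wells; some hits fall short of that in this replicate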
Hits are given with their value; ! = a repeat was not active.

Screening N#CCCn1cc(/C=C(\C#N)c2nc3ccccc3s2)c(-c2ccc(F)cc2)n1 returned SR-BI DiI inh inactive, SR-BI uptake up inactive, GSIS activator 50 and UUG fidelity inactive.
O=C(C[C@@H]1C[C@H]2c3cc(NC(=O)NC4CCCCC4)ccc3O[C@H]2[C@H](CO)O1)NCc1ccccc1 was read as GSIS activator inactive and UUG fidelity inactive.
COc1ccc(/C=C(/C#N)C(=O)Nc2ccc(C)cc2C)cc1C(=O)O was read as SR-BI DiI inh inactive, SR-BI uptake up 66 and UUG fidelity inactive.
COc1ccc(/C=C(/C#N)C(=O)Nc2ccccc2C)cc1C(=O)O was read as SR-BI DiI inh inactive, SR-BI uptake up inactive and UUG fidelity inactive.
C[C@@H]1CN([C@@H](C)CO)C(=O)c2cc(NC(=O)Cn3cnnn3)ccc2O[C@@H]1CN(C)Cc1ccc2c(c1)OCO2 was read as GSIS activator inactive and UUG fidelity inactive.
`CCCc1c(O)nc(SCCN(CCC)CCC)[nH]c1=O` gave SR-BI DiI inh inactive, SR-BI uptake up inactive and UUG fidelity inactive.
Screening CCCCCCCc1c(O)nc(SCCN(C)C)[nH]c1=O returned SR-BI DiI inh inactive, SR-BI uptake up 272, GSIS activator inactive and UUG fidelity inactive.
C[C@@H]1CCCCO[C@H](CN(C)Cc2ccc(C(F)(F)F)cc2)[C@@H](C)CN([C@H](C)CO)C(=O)c2cc(NC(=O)CCCCCC(=O)Nc3ccccc3N)ccc2O1 was read as GSIS activator inactive.
Cc1ccc(-n2cc(CNCCCn3ccnc3C)c(-c3ccc(F)cc3)n2)cc1 was read as SR-BI DiI inh inactive, SR-BI uptake up inactive, GSIS activator 44 and UUG fidelity inactive.
CC(=O)c1c(C)[nH]c(C(=O)OCc2c(F)cccc2Cl)c1C was read as SR-BI DiI inh inactive, SR-BI uptake up inactive and GSIS activator inactive.
Screening CC(=O)c1c(C)[nH]c(C(=O)OCc2cccc(Cl)c2)c1C returned SR-BI DiI inh 71, SR-BI uptake up inactive, GSIS activator inactive and UUG fidelity inactive.
For C[C@@H]1CCCCO[C@@H](CN(C)S(=O)(=O)c2ccc(F)cc2)[C@@H](C)CN([C@@H](C)CO)C(=O)c2cc(NS(=O)(=O)c3ccc(F)cc3)ccc2O1 the results were GSIS activator inactive and UUG fidelity inactive.
CCC1Oc2ccc(C)cc2N(CC(=O)NC2CCCCC2)C1=O (stereo unspecified) was read as SR-BI DiI inh 89, SR-BI uptake up inactive, GSIS activator inactive and UUG fidelity inactive.
`CCCc1cc(=O)oc2cc(C)cc(OCC(=O)Nc3ccc(S(N)(=O)=O)cc3)c12` gave SR-BI DiI inh inactive, SR-BI uptake up inactive, GSIS activator 139 and UUG fidelity inactive.
COc1ccc(-c2sc3ccc(N4CCOCC4)cc3c2C#CC(C)(C)O)cc1 was read as SR-BI DiI inh inactive, SR-BI uptake up inactive, GSIS activator inactive and UUG fidelity inactive.
`COc1ccc(-c2sc3ccc(N4CCOCC4)cc3c2C#Cc2ccsc2)cc1` gave SR-BI DiI inh 90, SR-BI uptake up inactive, GSIS activator inactive and UUG fidelity inactive.
Screening CCOC(=O)C1CCCN(C(=O)c2cc(-c3ccc(F)cc3)nc3ccccc23)C1 (stereo unspecified) returned SR-BI DiI inh 70, SR-BI uptake up inactive, GSIS activator inactive and UUG fidelity inactive.
Screening C[C@@H]1CN([C@@H](C)CO)C(=O)Cc2cc(NS(=O)(=O)c3cn(C)cn3)ccc2O[C@@H]1CN(C)S(=O)(=O)c1ccccc1 returned GSIS activator inactive and UUG fidelity inactive.
Screening CN(CCOC(=O)c1cccc(F)c1)Cc1ccccc1 returned SR-BI DiI inh inactive, SR-BI uptake up inactive and GSIS activator inactive.
For CC(CN(C)Cc1ccccc1)OC(=O)c1cccc(F)c1 (stereo unspecified) the results were SR-BI DiI inh inactive, SR-BI uptake up 69, GSIS activator inactive and UUG fidelity inactive.
For CN(/N=C\c1ccc(O)c(O)c1)c1nc(-c2ccccc2)cc(-c2ccccc2)n1 the results were SR-BI DiI inh 112, SR-BI uptake up inactive and GSIS activator inactive.
COc1cc(/C=N/N(c2ccccc2)c2ccccc2)ccc1O was read as SR-BI DiI inh inactive, SR-BI uptake up inactive, GSIS activator inactive and UUG fidelity inactive.
For CC(=O)Nc1sc(C)c(C)c1C(=O)Nc1ccc(C)cc1 the results were SR-BI DiI inh inactive, SR-BI uptake up inactive, GSIS activator inactive and UUG fidelity inactive.
CCCC(=O)Nc1sc(C)c(C)c1C(=O)Nc1cccc(C)c1 was read as SR-BI DiI inh 72, SR-BI uptake up inactive, GSIS activator inactive and UUG fidelity inactive.
COCC(=O)N1C[C@H]2[C@@H](c3ccccc31)[C@@H](CO)N2C(=O)C1CCCCC1 was read as GSIS activator inactive and UUG fidelity inactive.
For Cc1cc(OCc2ccc(F)cc2)nc(-c2ccccc2O)n1 the results were SR-BI DiI inh 78, SR-BI uptake up inactive and UUG fidelity inactive.
Cc1ccc(Oc2cc(C)nc(-c3ccccc3O)n2)cc1 was read as SR-BI DiI inh inactive, SR-BI uptake up inactive and UUG fidelity inactive.
For COc1ccc(/C(C)=N/NC(=O)Cn2nc([N+](=O)[O-])cc2C)cc1 the results were SR-BI DiI inh inactive, SR-BI uptake up inactive and GSIS activator 51.
`C[C@H]1CN([C@@H](C)CO)C(=O)CCCn2nncc2CO[C@@H]1CN(C)Cc1ccccc1` gave GSIS activator inactive and UUG fidelity inactive.
Screening C[C@H]1CN([C@@H](C)CO)C(=O)c2ccccc2-c2ccccc2CO[C@@H]1CN(C)Cc1cccc(C(F)(F)F)c1 returned GSIS activator 56.
`C[C@H]1CN([C@@H](C)CO)C(=O)c2ccccc2-c2ccccc2CO[C@@H]1CN(C)Cc1ccc(Cl)c(Cl)c1` gave GSIS activator 42.
`C[C@@H]1CN([C@@H](C)CO)C(=O)CCCn2nncc2CO[C@H]1CN(C)Cc1ccccc1` gave GSIS activator 41! and UUG fidelity inactive.
Screening Cc1ccc(S(=O)(=O)Nc2ccc3c(c2)C(=O)N([C@H](C)CO)C[C@@H](C)[C@@H](CN(C)Cc2ccc(-c4ccccc4)cc2)O3)cc1 returned GSIS activator inactive and UUG fidelity inactive.
For C[C@@H]1CN([C@H](C)CO)C(=O)c2ccccc2-c2ccccc2CO[C@@H]1CN(C)Cc1cccc(C(F)(F)F)c1 the results were GSIS activator inactive.
For Cc1ccc(S(=O)(=O)Nc2ccc3c(c2)C(=O)N([C@H](C)CO)C[C@H](C)[C@@H](CN(C)Cc2ccc(-c4ccccc4)cc2)O3)cc1 the results were SR-BI DiI inh inactive, SR-BI uptake up 76, GSIS activator inactive and UUG fidelity inactive.
For Cc1cc(-c2cc(-c3ccccc3)on2)nc(NC2CCCC2)n1 the results were SR-BI DiI inh 81, SR-BI uptake up inactive and UUG fidelity inactive.
`Cc1cc(-c2cc(-c3ccc(Cl)cc3)on2)nc(NC2CCCC2)n1` gave SR-BI DiI inh inactive, SR-BI uptake up inactive, GSIS activator inactive and UUG fidelity inactive.
